Results reported in ChEMBL document CHEMBL1148291, “Prediction of human volume of distribution values for neutral and basic drugs. 2. Extended data set and leave-class-out statistics” (J Med Chem, 2004).

Assay: clinical
Details: human, in vivo

**Q.** For `CC(CN1c2ccccc2Sc2ccccc21)N(C)C` (stereo unspecified) [PROMETHAZINE], which Vd is on record?
**A.** 14 L/kg
